The values that follow come from PubChem BioAssay AID461 (SRMLSC, 2006).

Protein sequences, listed by entry. Tags and fused reporters are not part of them.
UniProt P04626, whole entry: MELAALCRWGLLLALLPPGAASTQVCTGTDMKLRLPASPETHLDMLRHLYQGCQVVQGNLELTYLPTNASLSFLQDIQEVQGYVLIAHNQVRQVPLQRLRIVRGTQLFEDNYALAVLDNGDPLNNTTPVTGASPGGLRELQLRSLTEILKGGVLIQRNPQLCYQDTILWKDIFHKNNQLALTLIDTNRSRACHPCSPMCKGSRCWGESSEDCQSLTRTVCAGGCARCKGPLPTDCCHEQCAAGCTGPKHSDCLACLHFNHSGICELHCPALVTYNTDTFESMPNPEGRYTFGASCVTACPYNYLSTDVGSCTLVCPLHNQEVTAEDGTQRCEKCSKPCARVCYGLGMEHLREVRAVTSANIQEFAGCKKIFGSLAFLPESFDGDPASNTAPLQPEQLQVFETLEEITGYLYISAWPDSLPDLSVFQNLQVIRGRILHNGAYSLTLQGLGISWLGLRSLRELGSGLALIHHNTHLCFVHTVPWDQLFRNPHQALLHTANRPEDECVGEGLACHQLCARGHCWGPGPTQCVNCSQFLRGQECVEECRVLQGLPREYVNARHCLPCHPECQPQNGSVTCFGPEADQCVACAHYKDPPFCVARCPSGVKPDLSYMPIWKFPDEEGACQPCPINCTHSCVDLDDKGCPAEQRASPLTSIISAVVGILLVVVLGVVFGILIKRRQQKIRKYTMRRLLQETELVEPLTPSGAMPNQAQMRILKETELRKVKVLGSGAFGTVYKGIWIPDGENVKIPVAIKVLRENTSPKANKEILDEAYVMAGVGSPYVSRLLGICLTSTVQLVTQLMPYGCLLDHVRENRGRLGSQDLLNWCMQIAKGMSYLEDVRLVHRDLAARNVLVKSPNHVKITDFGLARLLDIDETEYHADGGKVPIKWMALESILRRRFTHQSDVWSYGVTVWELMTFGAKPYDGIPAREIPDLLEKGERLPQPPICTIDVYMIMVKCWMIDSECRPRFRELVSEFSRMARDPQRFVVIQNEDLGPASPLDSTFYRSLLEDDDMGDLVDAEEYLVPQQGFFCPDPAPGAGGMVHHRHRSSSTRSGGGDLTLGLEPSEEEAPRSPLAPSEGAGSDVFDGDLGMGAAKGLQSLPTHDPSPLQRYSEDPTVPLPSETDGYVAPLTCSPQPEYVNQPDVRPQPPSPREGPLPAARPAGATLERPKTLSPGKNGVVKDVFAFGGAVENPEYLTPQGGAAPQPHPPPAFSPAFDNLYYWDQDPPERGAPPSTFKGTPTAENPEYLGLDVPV

Only a part is listed here, and it is no random draw. Calls of active or inactive are those of the source.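 The calls were made as follows: active = Her2 level under about 52% in both replicate screens, with viability over 70% of control (limit read from the data); inconclusive = Her2 under the limit in one screen only, or viability under 70%; inactive = Her2 level above the set limit.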

The target of this assay is Receptor tyrosine-protein kinase erbB-2 (Homo sapiens) (UniProt P04626). Nature of the assay: reducers of endogenous Her2 protein level, primary screen, SKBR3 breast tumor cells, AlphaScreen, ATP viability (AID 461).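 Also: lower value means less Her2 protein in the cells.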 The following applies: 18-24 h, at 10 µM, stronger effect = lower value. For orientation: Alpha assays give light when donor and acceptor beads are brought close together.
As to `CP(=O)(Nc1ccccn1)Oc1ccccc1` (stereo not given), the Her2 level is inactive: 104%.

Turning to `CP(=O)(Nc1ccc2c(c1)OCCO2)Oc1ccccc1` (stereo not given), the Her2 level is inactive: 120%.

`CN(C)CCOC(=O)C(O)(c1ccccc1)C1CCCCC1` (stereo not given): the Her2 level was inactive: 104%.

On to `Cc1ccc(C)c(NP(C)(=O)Oc2ccccc2)c1` (stereo not given), for which the Her2 level is inactive: 103%.

`CP(=S)(Nn1cnnc1)Oc1ccccc1` (stereo not given): the Her2 level was inactive: 121%.
